Amino acid sequences for entries named in this document (tags omitted). A change or cut given only in a name is not applied to a line headed by its entry.
UniProt Q96SW2: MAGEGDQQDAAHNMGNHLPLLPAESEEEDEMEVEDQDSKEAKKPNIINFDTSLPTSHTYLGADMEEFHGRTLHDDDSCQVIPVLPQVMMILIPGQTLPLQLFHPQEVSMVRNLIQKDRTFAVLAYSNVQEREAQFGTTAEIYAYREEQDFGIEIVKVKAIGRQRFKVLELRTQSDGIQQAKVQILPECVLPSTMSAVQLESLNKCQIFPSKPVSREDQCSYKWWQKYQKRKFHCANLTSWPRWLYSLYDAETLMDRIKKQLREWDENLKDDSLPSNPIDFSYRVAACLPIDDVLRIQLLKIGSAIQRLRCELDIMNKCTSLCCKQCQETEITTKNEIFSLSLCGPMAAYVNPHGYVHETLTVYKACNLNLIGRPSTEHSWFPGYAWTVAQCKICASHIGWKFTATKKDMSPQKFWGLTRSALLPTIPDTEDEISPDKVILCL

The experiment deals with GST-tagged wild-type human CRBN protein (Homo sapiens, UniProt Q96SW2). As to the kind of experiment: biochemical.
Molecule `O=C1CC[C@H](N2Cc3c(ccc4c3NCC43CCNCC3)C2=O)C(=O)N1` [Compound B2, (S)-3-(6′-oxo-1′,2′,6′,8′-tetrahydro-7′H-spiro[piperidine-4,3′-pyrrolo[3,4-g]indol]-7′-yl)piperidine-2,6-dione] returned an IC50 of 2800 nM.
To `O=C1CCC(N2Cc3c(ccc4c3COC43CCNCC3)C2=O)C(=O)N1` (stereo not shown) [Compound B0, 3-(6-oxo-6,8-dihydrospiro[furo[3,4-e]isoindole-3,4′-piperidin]-7(1H)-yl)piperidine-2,6-dion] belongs 14000 nM; to `CN1CC2(CCNCC2)c2ccc3c(c21)CN([C@H]1CCC(=O)NC1=O)C3=O` [Compound B3, (S)-3-(1′-methyl-6′-oxo-1′,2′,6′,8′-tetrahydro-7′H-spiro[piperidine-4,3′-pyrrolo[3,4-g]indol]-7′-yl)piperidine-2,6-dione], 3100 nM; to `O=C1CCC(N2Cc3c(ccc4c3OCCC43CCNCC3)C2=O)C(=O)N1` (stereo not shown) [Compound A16, 3-(7′-oxo-2′,3′,7′,9′-tetrahydro-8′H-spiro[piperidine-4,4′-pyrano[2,3-e]isoindol]-8′-yl)piperidine-2,6-dione], 420 nM.

For the origin of these results see patent US20250195484A1, “CEREBLON LIGANDS AND USES THEREOF” (priority 2022, published 2025).
